{
  "sequences": {"note": "Sequences of proteins named here, by UniProt entry; tags and fusion partners are left off. A change or cut given only in a name is not applied to a line headed by its entry. Residues count along the entry.", "UniProt P22303, 32-614 limits assumed": "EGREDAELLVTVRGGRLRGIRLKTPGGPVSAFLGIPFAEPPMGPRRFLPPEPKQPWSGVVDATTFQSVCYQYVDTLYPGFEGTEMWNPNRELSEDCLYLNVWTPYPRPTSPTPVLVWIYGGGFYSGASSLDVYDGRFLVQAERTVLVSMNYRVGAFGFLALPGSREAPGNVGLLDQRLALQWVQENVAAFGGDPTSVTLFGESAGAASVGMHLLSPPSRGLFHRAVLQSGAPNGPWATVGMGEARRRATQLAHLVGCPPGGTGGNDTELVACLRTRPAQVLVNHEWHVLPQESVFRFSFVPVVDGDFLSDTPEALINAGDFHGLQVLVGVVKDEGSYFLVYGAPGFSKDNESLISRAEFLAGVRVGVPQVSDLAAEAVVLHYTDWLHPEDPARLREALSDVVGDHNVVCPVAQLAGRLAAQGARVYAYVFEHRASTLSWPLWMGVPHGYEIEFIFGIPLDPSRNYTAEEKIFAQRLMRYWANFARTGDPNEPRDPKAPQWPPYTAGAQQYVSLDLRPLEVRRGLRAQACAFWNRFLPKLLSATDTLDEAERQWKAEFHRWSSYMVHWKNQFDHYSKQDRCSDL", "UniProt P21836, 32-614 limits assumed": "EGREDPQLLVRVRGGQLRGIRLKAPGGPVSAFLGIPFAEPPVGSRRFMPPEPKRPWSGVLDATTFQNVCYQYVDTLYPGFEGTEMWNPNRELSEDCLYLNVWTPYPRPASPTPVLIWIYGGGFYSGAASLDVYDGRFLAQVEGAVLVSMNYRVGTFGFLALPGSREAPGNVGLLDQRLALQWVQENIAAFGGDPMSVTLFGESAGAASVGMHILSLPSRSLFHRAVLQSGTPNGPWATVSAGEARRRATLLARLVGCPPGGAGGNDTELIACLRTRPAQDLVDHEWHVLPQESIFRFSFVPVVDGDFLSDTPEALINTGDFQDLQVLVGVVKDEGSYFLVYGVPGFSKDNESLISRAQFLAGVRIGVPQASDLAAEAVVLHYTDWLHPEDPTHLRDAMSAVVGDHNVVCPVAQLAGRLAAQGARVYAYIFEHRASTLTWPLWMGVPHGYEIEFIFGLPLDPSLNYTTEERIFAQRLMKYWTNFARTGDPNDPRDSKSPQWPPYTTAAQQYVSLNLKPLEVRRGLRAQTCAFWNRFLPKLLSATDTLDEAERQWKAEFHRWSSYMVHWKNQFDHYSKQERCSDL", "UniProt P21836, 32-614 D105E limits assumed": "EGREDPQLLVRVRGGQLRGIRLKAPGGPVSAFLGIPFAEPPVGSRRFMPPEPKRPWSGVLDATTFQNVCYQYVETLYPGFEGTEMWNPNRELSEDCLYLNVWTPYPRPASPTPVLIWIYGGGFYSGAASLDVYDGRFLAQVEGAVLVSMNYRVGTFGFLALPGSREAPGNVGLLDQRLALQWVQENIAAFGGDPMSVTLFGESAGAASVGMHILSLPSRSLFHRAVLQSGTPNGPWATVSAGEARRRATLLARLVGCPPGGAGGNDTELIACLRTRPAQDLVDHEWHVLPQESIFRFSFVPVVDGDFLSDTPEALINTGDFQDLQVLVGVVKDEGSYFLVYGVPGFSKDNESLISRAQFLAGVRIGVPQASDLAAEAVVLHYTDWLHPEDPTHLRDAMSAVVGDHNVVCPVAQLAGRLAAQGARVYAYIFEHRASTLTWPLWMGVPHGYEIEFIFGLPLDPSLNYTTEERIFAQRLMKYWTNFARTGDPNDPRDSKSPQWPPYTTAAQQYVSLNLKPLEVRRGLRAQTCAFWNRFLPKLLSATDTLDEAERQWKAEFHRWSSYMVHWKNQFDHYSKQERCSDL"},
  "source": "paper PMC2693926",
  "key": {"hAChE": {"target": "hAChE (Homo sapiens, UniProt P22303)", "conditions": "substrate acetylthiocholine, mean of 8 determinations±S.D., pH 8.0, 30°C"}, "[1]": {"target": "wild-type non-phosphonylated mAChE (Mus musculus, UniProt P21836)", "conditions": "substrate acetylthiocholine, mean of 8 determinations±S.D., pH 8.0, 30°C"}, "Asp74Glu mAChE": {"target": "Asp74Glu mAChE (Mus musculus, UniProt P21836, D105E)"}, "[2]": {"system": "Tyr124Glu mutation of iPrMP-mAChE", "conditions": "cited from earlier work"}, "Trp286Ala iPrMP-mAChE": {"system": "Trp286Ala iPrMP-mAChE", "conditions": "Trp286Ala substitution of iPrMP-mAChE; cited from earlier work"}, "[3]": {"system": "Tyr337Ala mutant of mAChE", "conditions": "cited from earlier work"}, "[4]": {"system": "Phe295Leu, Phe297Ile, and Trp86Ala iPrMP-mAChE", "conditions": "substitutions Phe295Leu; cited from earlier work"}, "DFP-hAChE": {"target": "DFP-hAChE (Homo sapiens, UniProt P22303)", "assay": "Reactivation kinetics of DFP-inhibited hAChE (discontinuous method)", "conditions": "mean±S.D. of 2–4 determinations, buffer condition as reported in [8]"}},
  "note": "Values joined by “and” are separate entries in the source; they are usually repeats but may differ in a detail not shown here. Equal values may be shown once.",
  "data": [
    {"compound": "CC(=O)SCC[N+](C)(C)C", "values": [
      {"measurement": "Km", "setting": "hAChE", "result": 124, "unit": "µM"},
      {"measurement": "Km", "setting": "[1]", "result": 81, "unit": "µM"},
      {"measurement": "Km", "setting": "Asp74Glu mAChE", "result": 182, "unit": "µM"}
    ]},
    {"compound": "Cl.NC(=O)c1cc[n+](COCN2C=CC=C/C2=C\\N=O)cc1.[Cl-]", "values": [
      {"measurement": "decrease of the bimolecular reactivation rate constant", "setting": "[2]", "result": 36, "unit": "fold"},
      {"measurement": "reduction of the bimolecular reactivation rate constant", "setting": "Trp286Ala iPrMP-mAChE", "result": 3, "unit": "fold"},
      {"measurement": "decrease in affinity", "setting": "[3]", "result": 30, "unit": "fold"},
      {"measurement": "reduction of the bimolecular rate constant", "setting": "[3]", "result": 5.5, "unit": "fold"},
      {"measurement": "change of the bimolecular rate constant", "setting": "[4]", "result": "0.9- to 1.4 fold"}
    ]},
    {"compound": "NC(=O)c1cc[n+](CCC[n+]2ccc(/C=N/O)cc2)cc1.[Br-].[Br-]", "values": [
      {"measurement": "kr hAChE DFP", "setting": "DFP-hAChE", "result": "0.047 min^−1 and 0.047±0.003 ^c min^−1"}
    ]}
  ]
}
